These results are taken from PubChem BioAssay AID636 (SRMLSC, 2007).

The list shows a part of the results, in another mix than the full data. Active and inactive are the calls of the source. Rule as the data show it: active = inhibition above about 31%; inactive = the rest.

This assay in a line: 384-well plate pilot, post-Golgi transport modulator project, inhibition of yeast transport mutant growth (AID 636). The following applies: absorbance 615 nm, about 18 h, stronger effect = higher value.
Consider `O=P(Nc1nccs1)(c1ccccc1)c1ccccc1`, for which the inhibition (in general, the drop in the measured response relative to a control, in per cent) was inactive: -5%. To `O=C(COc1ccccc1)OC1CN2CCC1CC2` (stereo not given) belongs inactive: 1.58%. In the case of `COP1(=S)c2c(C)nn(CCC#N)c2N=C(c2ccc(F)cc2)N1C` (stereo not given), the inhibition was inactive: -4.29%.

Regarding `CCOP1(=S)c2c(C)nn(CCC#N)c2N=C(c2ccccc2F)N1C` (stereo not given), the inhibition was inactive: 0.13%. `Cc1nn(-c2ccccc2)c2c1P(=O)(N1CCOCC1)N(C)C(c1ccccc1)=N2` (stereo not given): the inhibition was inactive: 2.6%.
